Laboratory results taken from patent US20170120592A1, “INK JET RECORDING METHOD AND INK JET RECORDING APPARATUS” (CANON KABUSHIKI KAISHA, priority 2015, published 2017).

Assay: Water-solubility of dye
Assay type: physicochemical
Settings: maximum mass of the dye in a sodium salt form that can be dissolved in 100 g of pure water at 20° C.

## COc1cc(N=Nc2cccc(S(=O)(=O)O)c2)ccc1NC(=O)Nc1ccc(N=Nc2cccc(S(=O)(=O)O)c2)cc1OC [C.I. Direct Yellow 132]
  water-solubility of the dye: (12 g )
